Measured values from patent US20160220689A1, “MACROMOLECULES OF DENDRIMER-PLATINUM CONJUGATES” (priority 2013, published 2016).

Legend:
[1] = Toxicity study: blood cell counts in tumor-bearing mice; settings: Oxaliplatin 5, Compound 1 8.5, Compound 5 9 mg/kg Pt equivalents IV days 1, 8, 15
Experimental: The mice were randomised into 4 groups of n=5 mice, (mean tumor volume ˜90 mm^3) On day one, animals were eye bled in the morning for baseline cell counts and then drug dosing commenced later that day. Drug dosing was performed on days 1, 8 and 15 at the previously determined maximum tolerated doses. All compounds were dissolved in 5% glucose at the concentration required to allow administration of 0.1 mL/10 g body weight. […] Subsequent eye bleeds were performed on days 7, 14 and 26 (Tables 4 A-D, in each case data represented as mean ratio of counts for each time point relative to that at the baseline).

[2] = system: bone marrow nucleated cells; test: Nucleated cells in bone marrow by flow cytometry; settings: 72 hours; greater dose of Pt than Oxaliplatin
[3] = Neuropathic responses, Von Frey test of mechanical sensitivity; settings: after 2 doses, versus Oxaliplatin

Substance	Mean lymphocytes counts (baseline corrected) (SEM) ([1]; Day 1 (baseline))	Mean lymphocytes counts (baseline corrected) (SEM) ([1]; Day 7)	Mean lymphocytes counts (baseline corrected) (SEM) ([1]; Day 14)	Mean lymphocytes counts (baseline corrected) (SEM) ([1]; Day 26)	damage to bone marrow nucleated cells compared with Oxaliplatin [2]	mechanical sensitivity / peripheral neurotoxicity [3]
BHALys[Lys]32[α-Succ-Gly-Leu-Phe-Gly-amino malonic acid-Pt-1R,2R-(DACH)]32[ε-PEG2200]32 [Compound 5]	1.000 (0.381)	0.300 (0.150)	1.057 (0.340)	1.224 (0.366)	–	–
BHALys[Lys]32[α-Succ-Gly-Gly-Gly-amino malonic acid-Pt-1R,2R-(DACH)]32[ε-PEG2200]32 [Compound 1]	1.000 (0.196)	1.365 (0.420)	2.059 (0.500)	1.127 (0.221)	higher proportion of nucleated cells at 72 hours	improved mechanical sensitivity
